# Yeast mating assay 1: variants of the scFv Ab-14

Target: peptide PDVDLGDISGINAS, taken from heptad repeat 2 (HR2) of SARS-CoV-2 spike.

Parent: Ab-14, a human scFv built as VH, the linker GGGGSGGGGSGGGGS, VL. Only the CDRs of the heavy chain vary.
VH: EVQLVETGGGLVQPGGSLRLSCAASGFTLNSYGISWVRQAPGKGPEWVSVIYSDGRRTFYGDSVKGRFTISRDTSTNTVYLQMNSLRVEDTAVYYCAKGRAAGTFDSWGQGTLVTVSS
VL: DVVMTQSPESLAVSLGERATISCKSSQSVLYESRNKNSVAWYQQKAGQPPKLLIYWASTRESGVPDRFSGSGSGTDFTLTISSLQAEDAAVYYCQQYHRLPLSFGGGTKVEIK

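Phage display of a naive human antibody library on the peptide gave the parent. In library AAYL49, one, two or three CDR residues were substituted; doubles and triples were drawn at random. AlphaSeq pools MATa yeast showing the antibodies with MATalpha yeast showing the peptide. After mating in shaken culture at 30 °C for 16 h, diploids were selected and their barcode pairs sequenced. Read counts were normalised to the haploid input and turned into Kd by a linear fit to BCL2-family pairs of known affinity, for each replicate. Mating was done three times.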

Positions count from residue 1 of the parent VH; F27Y puts Y in place of F. Every variant below is changed at F27 of the VH (sequential numbering). Affinities are written as log10 Kd with Kd in nM; a lower number is a better binder. Where no diploid with the target was found in that replicate, the entry reads "ND": below detection, most likely a poor binder, though not proof of it. Empty control strains, which show no peptide, gave a signal in 15% of pairings with library AAYL49; the median was 4.06 and 95% of these signals were weaker than 2.83. No background was subtracted.

With F27Y V50G F59P the result was 4.50, ND, ND.
With F27P T58D the result was ND, 3.29, ND.
With F27E Y52E A102C the result was ND, ND, ND.
With F27Q R57G G61V the result was ND, ND, ND.
With F27M T28C S53Y the result was ND, ND, ND.
With F27I S63N G99V the result was ND, ND, ND.
With F27R T28Q G103T the result was ND, ND, ND.
With F27L S53F F59L the result was ND, 2.16, ND.
With F27A D62N R100F the result was ND, 4.33, ND.
With F27I T28L G99E the result was ND, ND, ND.
With F27K V50H R100P the result was ND, ND, 5.61.
With F27V S53I D106F the result was 4.85, 3.37, 4.00.
With F27L T58F Y60V the result was ND, ND, ND.

Parent in this assay: reference entry 0.65, copy in this library 4.11 (one replicate of three).

From the AlphaSeq antibody data of Engelhart et al. 2022 (doi:10.1038/s41597-022-01779-4), copy in the FLAb collection.